Results reported in article PMC8480965 (The Journal of General Physiology, 2021).
“And” between values parts separate entries of the source, which are not always exact repeats. Equal values may be shown once.

Experiments:
[1] = molecular target: T1, Kv2.1 (Kv2.1-CHO cells) (Rattus norvegicus, UniProt P15387); test: Voltage clamp fluorometry of GxTX-594 on Kv2.1-CHO cells; assay type: cell-based
T1 sequence (P15387 1-857): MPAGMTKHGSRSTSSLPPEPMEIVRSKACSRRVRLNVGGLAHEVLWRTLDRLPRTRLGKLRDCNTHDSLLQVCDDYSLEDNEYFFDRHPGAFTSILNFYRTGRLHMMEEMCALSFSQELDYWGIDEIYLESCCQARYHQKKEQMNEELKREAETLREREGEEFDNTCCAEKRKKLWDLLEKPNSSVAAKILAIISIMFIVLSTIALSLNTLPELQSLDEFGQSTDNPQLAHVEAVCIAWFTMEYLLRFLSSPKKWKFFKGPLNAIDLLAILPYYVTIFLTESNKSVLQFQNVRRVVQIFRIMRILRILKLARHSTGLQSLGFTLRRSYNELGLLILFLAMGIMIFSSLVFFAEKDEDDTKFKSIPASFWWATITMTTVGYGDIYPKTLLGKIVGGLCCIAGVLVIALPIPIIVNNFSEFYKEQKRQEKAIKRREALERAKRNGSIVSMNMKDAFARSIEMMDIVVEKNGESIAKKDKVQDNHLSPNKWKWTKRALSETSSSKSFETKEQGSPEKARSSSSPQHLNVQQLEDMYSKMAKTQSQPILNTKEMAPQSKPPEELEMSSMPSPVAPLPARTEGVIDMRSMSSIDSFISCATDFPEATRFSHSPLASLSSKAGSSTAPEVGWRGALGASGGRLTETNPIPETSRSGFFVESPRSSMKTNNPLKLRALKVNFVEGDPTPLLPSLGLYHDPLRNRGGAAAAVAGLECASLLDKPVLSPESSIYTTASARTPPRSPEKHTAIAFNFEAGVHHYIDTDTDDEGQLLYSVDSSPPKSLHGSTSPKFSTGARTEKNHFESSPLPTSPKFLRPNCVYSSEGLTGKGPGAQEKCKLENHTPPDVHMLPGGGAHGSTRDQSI

[2] = tested on: Kv4.2-GFP; test: GxTX-594 labeling and colocalization imaging, Kv4.2-GFP; assay type: binding, rat
[3] = molecular target: T1, Kv2.1 (Kv2.1-CHO cells); test: GxTX-594 concentration-effect imaging; assay type: binding
Summary of the method: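 Kv2.1-CHO cells were induced with 1 μg/ml minocycline for 48 h and imaged in CE buffer with 10 mM glucose and 1% BSA. Three 10-fold serial dilutions of 1,000 nM were perfused (~1 ml per 10 s), each for 15 min with 15 min washout between. Images were taken every 5 s near the glass-adhered surface and not background subtracted. Intensity was normalized to Fmax at 1,000 nM. Post-washout fluorescence was fitted with a Langmuir isotherm; three experiments.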

[4] = molecular target: T1, Kv2.1 (Kv2.1-CHO cells); assay type: cell-based
[5] = tested on: Kv1.5-GFP; test: GxTX-594 labeling and colocalization imaging, Kv1.5-GFP; assay type: binding, rat
[6] = 9 nM GxTX-594, step from −80 mV, monoexponential fit, exemplar cell, ± SD of fit
[7] = 9 nM, ROI hand-drawn to contain apparent cell surface, representative trace
[8] = 9 nM, glass-adhered surface, circle 1.8 μm diameter, representative trace
[9] = 9 nM, glass-adhered surface, circle 4.9 μm diameter, representative trace
[10] = 9 nM, glass-adhered surface, circle 9.1 μm diameter, representative trace
[11] = step −80 mV to 0 mV, representative trace

CCCC[C@H](NC(=O)[C@@H]1CCCN1C(=O)[C@H](Cc1ccccc1)NC(=O)[C@H](CC(N)=O)NC(=O)[C@@H]1CSSC[C@@H]2NC(=O)[C@H](C)NC(=O)[C@@H]3CCCN3C(=O)[C@H](CCCCN)NC(=O)CNC(=O)[C@H](CSC3CC(=O)N(CCCCCNC(=O)c4ccc(C5=c6cc7c(cc6Oc6cc8c(cc65)C(CS(=O)(=O)O)=CC(C)(C)N8C)=[N+](C)C(C)(C)C=C7CS(=O)(=O)[O-])c(C(=O)O)c4)C3=O)NC(=O)CNC(=O)[C@@H]3CSSC[C@H](NC(=O)[C@H](C(C)C)NC(=O)[C@H](Cc4ccc(O)cc4)NC(=O)[C@H](CCCCN)NC(=O)[C@@H]4CCCN4C(=O)[C@H](CSSC[C@H](NC(=O)[C@H](CCC(=O)O)NC(=O)CNC(=O)[C@@H](N)CCC(=O)O)C(=O)NCC(=O)NCC(=O)N[C@@H](Cc4ccccc4)C(=O)N[C@@H](Cc4c[nH]c5ccccc45)C(=O)N[C@@H](Cc4c[nH]c5ccccc45)C(=O)N[C@@H](CCCCN)C(=O)N3)NC2=O)C(=O)N[C@@H](CO)C(=O)N2CCC[C@H]2C(=O)N[C@@H](CCCCN)C(=O)N[C@@H](Cc2c[nH]c3ccccc23)C(=O)NCC(=O)N[C@@H](CC(C)C)C(=O)N1)C(=O)N1CCC[C@H]1C(=O)O (some centres unmarked) [GxTX-594, Ser13Cys (Alexa Fluor 594) GxTX-1E]
z of kΔF–voltage relation ([1]; 9 nM GxTX-594, first-order Boltzmann fit, poorly constrained): 1.43 ± 0.35 e0 and 1.4 ± 0.4 e0 | kΔF at periphery vs center of cell, −80 mV ([1]; 9 nM GxTX-594, labeling): ~10 fold | kΔF at 0 mV [1, 6]: 0.1279 ± 0.0023 s⁻¹ | kΔF at 40 mV [1, 6]: 0.2492 ± 0.0062 s⁻¹ | kΔF at 80 mV [1, 6]: 0.42 ± 0.011 s⁻¹ | kΔF at −40 mV [1, 6]: 0.0215 ± 0.0022 s⁻¹ | kΔF at periphery vs center of cell, 40 mV ([1]; 9 nM GxTX-594, unlabeling): approximately threefold faster | average kΔF at −80 mV ([1]; 9 nM GxTX-594, voltage-clamped Kv2.1-CHO cells): 0.0014 s⁻¹ | kΔF at 40 mV, ROI 4 [1, 7]: 0.0969 ± 0.0033 s⁻¹ | kΔF at −80 mV, ROI 4 [1, 7]: 0.00546 ± 0.00013 s⁻¹ | kΔF at 40 mV, ROI 1 [1, 8]: 0.0429 ± 0.0026 s⁻¹ | kΔF at −80 mV, ROI 1 [1, 8]: 0.000427 ± 1.1e-05 s⁻¹ | kΔF at 40 mV, ROI 2 [1, 9]: 0.0439 ± 0.0016 s⁻¹ | kΔF at −80 mV, ROI 2 [1, 9]: 0.0007999 ± 5.3e-06 s⁻¹ | kΔF at 40 mV, ROI 3 [1, 10]: 0.0565 ± 0.0015 s⁻¹ | kΔF at −80 mV, ROI 3 [1, 10]: 0.0027556 ± 7.4e-06 s⁻¹ | kΔF at 27°C [1, 11]: 0.0247 ± 0.0039 s⁻¹ | kΔF at 37°C [1, 11]: 0.0754 ± 0.0054 s⁻¹ | ratio of GxTX-594 fluorescence to GFP ([2]; Kv4.2-GFP + KChIP2, 100 nM, rinsed, n = 13 cells): not distinguishable from zero | labeling without auxiliary subunits (Fig. S2) ([2]; Kv4.2-GFP without KChIP2, confocal, 100 nM): no indication of GxTX-594 labeling | colocalization with GFP-tagged channel ([2]; Kv4.2-GFP, Pearson correlation, 100 nM): no colocalization was apparent | koff [3]: 0.000593 s⁻¹ | kon [3]: 63700 M⁻¹ s⁻¹ | average kΔF ([3]; 10 nM GxTX-594, concentration–effect experiments, unclamped cells): 0.0011 s⁻¹ | labeling of glass-adhered surface ([3]; 100 nM, 5 min): near-maximal labeling | V1/2, mean midpoint of each of four independent voltage sensors ([4]; 100 nM GxTX-594, 5 min, fourth-power Boltzmann fit of tail GV, mean ± SD, n = 11): +27 ± 10 mV | z, elementary charges associated with Boltzmann fit ([4]; 100 nM GxTX-594, fourth-power Boltzmann fit, mean ± SD, n = 11): 1.0 ± 0.4 e0 | conduction by Kv2.1–GxTX-594 complex ([4]; physiological voltage range): does not open to conduct K^+ ions in the physiological voltage range | range of V1/2 ([4]; with GxTX-594, cell-to-cell variance): 36 mV | ratio of GxTX-594 fluorescence to GFP ([5]; Kv1.5-GFP + Kvβ2, 100 nM, rinsed, n = 13 cells): not distinguishable from zero | labeling without auxiliary subunits (Fig. S2) ([5]; Kv1.5-GFP without Kvβ2, confocal, 100 nM): no indication of GxTX-594 labeling | colocalization with GFP-tagged channel ([5]; Kv1.5-GFP, Pearson correlation, 100 nM): no colocalization was apparent
